Amino acid sequences for entries named in this document (tags omitted). Residues count along the entry.
UniProt P17405, 47-631 limits assumed: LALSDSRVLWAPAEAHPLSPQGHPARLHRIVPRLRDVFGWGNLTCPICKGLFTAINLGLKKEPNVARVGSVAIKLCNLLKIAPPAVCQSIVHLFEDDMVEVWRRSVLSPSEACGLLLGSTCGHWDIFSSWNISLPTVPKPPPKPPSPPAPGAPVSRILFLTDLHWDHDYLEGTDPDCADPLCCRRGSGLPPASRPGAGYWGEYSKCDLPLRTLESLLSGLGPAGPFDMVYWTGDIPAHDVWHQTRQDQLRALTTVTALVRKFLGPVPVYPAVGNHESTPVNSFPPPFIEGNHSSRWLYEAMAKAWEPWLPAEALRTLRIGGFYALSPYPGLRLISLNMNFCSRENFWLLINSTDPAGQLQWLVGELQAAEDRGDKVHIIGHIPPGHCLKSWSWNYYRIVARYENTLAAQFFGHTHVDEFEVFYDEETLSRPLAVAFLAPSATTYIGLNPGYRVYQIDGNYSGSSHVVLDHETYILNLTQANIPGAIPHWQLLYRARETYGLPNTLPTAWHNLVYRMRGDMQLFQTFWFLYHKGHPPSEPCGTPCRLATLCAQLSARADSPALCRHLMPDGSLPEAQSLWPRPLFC

Only a part is listed here, and it is no random draw. Some results for these compounds are left out of this collection, so the calls shown say nothing about other tests. The source made the active and inactive calls. Calls follow the shape of the dose curve; as a rule, active = well fitted inhibition curve with a large enough effect; inconclusive = small, poorly fitted or top-dose-only effect; inactive = no such curve, though single readings can be large or run the other way.
Each compound was assayed against Sphingomyelin phosphodiesterase (Homo sapiens) (UniProt P17405) (assay: Inhibitors of Secretory Acid Sphingomyelinase (S-ASM): qHTS). Details: placental ASM, HMU-PC fluorogenic substrate (series up to 57.5 µM), 60 min; at 57.5 µM (top of the series).
For `O=C(NCC1(N2CCCCC2)CCCCC1)c1cc(F)c(F)cc1Cl`, the activity change, negative = inhibition was inactive: 0.15%.
`C=CCN1CCN(CCOC(=O)C(O)(c2ccccc2)c2ccccc2)CC1` was tested, and the activity change, negative = inhibition was inactive: 5.4%.
In the case of `COc1ccc(C(=O)NCC2(N(C)C)CCCCC2)cc1`, the activity change, negative = inhibition is reported as inactive: -0.0304%.
`O=C(NCC1(N2CCCCC2)CCCCC1)c1cccc(Br)c1` was tested, and the activity change, negative = inhibition was inactive: -1.93%.
In the case of `CCN1CCCC(OC(=O)C2(O)c3ccccc3C=Cc3ccccc32)C1` (stereo not given), the activity change, negative = inhibition is reported as inactive: 5.09%.
For `Cc1cc(C(=O)NCC2(N3CCCCC3)CCCCC2)ccc1[N+](=O)[O-]`, the activity change, negative = inhibition was inactive: -0.112%.
`CN(C)c1ccc(C(=O)NCC2(N(C)C)CCCCC2)cc1` was tested, and the activity change, negative = inhibition was inactive: 2.24%.
`CN(C)C1CCCC1OC(=O)C(O)(c1ccccc1)c1ccccc1` (stereo not given) was tested, and the activity change, negative = inhibition was inactive: 4.24%.
For `Cc1ccccc1C(=O)NCC1(N2CCCCC2)CCCCC1`, the activity change, negative = inhibition was inactive: 4.24%.
With `COc1cc(SC)ccc1C(=O)NCC1(N(C)C)CCCCC1` the activity change, negative = inhibition was inactive: -1.13%.
In the case of `CCN(CC)CC(C)C(C)OC(=O)C(O)(c1ccccc1)c1ccccc1` (stereo not given), the activity change, negative = inhibition is reported as inactive: 3.47%.
`CC(C)N1C(=O)CC2(CCN(CCOC(=O)C(O)(c3ccccc3)c3ccccc3)CC2)C1=O` was tested, and the activity change, negative = inhibition was inactive: -1.43%.
`Cc1ccc(C(=O)NCC2(N3CCCCC3)CCCCC2)cc1` was tested, and the activity change, negative = inhibition was inactive: 8.02%.
With `O=C(NCC1(N2CCCCC2)CCCCC1)c1cc([N+](=O)[O-])ccc1Cl` the activity change, negative = inhibition was inactive: 0.501%.
`CN1[C@@H]2CC[C@H]1CC(OC(=O)C(O)(c1ccccc1)c1ccccc1)C2` (stereo not given in full) was tested, and the activity change, negative = inhibition was inactive: 1.23%.
With `COc1ccc(Br)c(C(=O)NCC2(N3CCCCC3)CCCCC2)c1` the activity change, negative = inhibition was inactive: -1.67%.
With `O=C(OCCN1CCCC1)C(O)(c1ccccc1)c1ccccc1` the activity change, negative = inhibition was inactive: -0.955%.
`CC(C)Oc1ccc(C(=O)NCC2(N(C)C)CCCCC2)cc1` was tested, and the activity change, negative = inhibition was inactive: -3.21%.
With `CN(C)c1cccc(C(=O)NCC2(N(C)C)CCCCC2)c1` the activity change, negative = inhibition was inactive: 19.9%.
In the case of `O=C(OC1CN2CCC1CC2)C(CO)(c1ccccc1)c1ccccc1` (stereo not given), the activity change, negative = inhibition is reported as inactive: 0.74%.
In the case of `COc1ccc(Cl)cc1C(=O)NCC1(N(C)C)CCCCC1`, the activity change, negative = inhibition is reported as inactive: 0.573%.
With `COc1cccc(C(=O)NCC2(N3CCCCC3)CCCCC2)c1` the activity change, negative = inhibition was inactive: -1.38%.
`O=C(NCC1(N2CCCCC2)CCCCC1)c1cccc(Cl)c1` was tested, and the activity change, negative = inhibition was inactive: -2.95%.
With `CN(C)C1(CNC(=O)c2ccc(Br)cc2)CCCCC1` the activity change, negative = inhibition was inactive: 5.17%.
For `COc1cc(C(=O)NCC2(N(C)C)CCCCC2)c([N+](=O)[O-])cc1OC`, the activity change, negative = inhibition was inactive: 2.76%.

Source: PubChem BioAssay AID504937 (National Center for Advancing Translational Sciences (NCATS), 2011)
